Bounds are passed on as bounds.

Amino acid sequences for entries named in this document (tags omitted). A change or cut given only in a name is not applied to a line headed by its entry.
UniProt Q9JI35: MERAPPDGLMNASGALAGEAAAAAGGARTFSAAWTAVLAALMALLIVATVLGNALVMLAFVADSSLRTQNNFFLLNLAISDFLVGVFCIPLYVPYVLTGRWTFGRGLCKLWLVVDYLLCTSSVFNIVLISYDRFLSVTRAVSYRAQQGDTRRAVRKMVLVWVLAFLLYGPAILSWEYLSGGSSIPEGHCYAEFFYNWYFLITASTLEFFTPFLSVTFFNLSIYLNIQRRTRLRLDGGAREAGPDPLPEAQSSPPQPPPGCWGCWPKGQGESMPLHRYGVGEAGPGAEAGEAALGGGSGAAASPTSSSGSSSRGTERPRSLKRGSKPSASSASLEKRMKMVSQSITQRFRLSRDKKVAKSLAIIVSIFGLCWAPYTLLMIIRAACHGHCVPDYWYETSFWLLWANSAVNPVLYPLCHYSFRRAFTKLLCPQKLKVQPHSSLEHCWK

One test addresses T1, H3 receptor (Cavia porcellus, UniProt Q9JI35).
T1 construct: the longitudinal muscle layer and adhering myenteric plexus was teased away; from tissue; host or cells: ileal longitudinal muscle with adhering myenteric plexus of male Dunkin-Hartley guinea pigs
As to the kind of experiment: H3 receptor bioassay (functional assay), guinea pig ileal longitudinal muscle myenteric plexus. The format is cell-based. To be noted: antagonism of R-(α)-methylhistamine E/[A] curve, Schild's methods; electrically stimulated guinea pig ileum; variance ±0.15 log units; read-out: pKB (functional assay) (converted). The method, then: The biological activity of the compounds of the examples was measured using the ileal longitudinal muscle, myenteric plexus assay described by Paton and Aboo Zar (J. Physiol. 194, 13-33 (1968)). Male Dunkin-Hartley guinea pigs (250-300 g) were employed. Briefly, a 50 cm portion of ileum proximal to the caecum was removed, after discarding the terminal 20 cm. Ileal segments (3 cm) were cleaned by passing Krebs-Henseleit buffer containing 3 μM mepyramine gently through the ileum using a Pasteur pipette (size: 13.8 cm length, 0.65 cm diameter). To avoid unnecessary damage to the tissue, Krebs-Henseleit buffer was passed through the ileal segment, while it was lying horizontally on a petri dish. Therefore, the ileum was not over-distended and the buffer flowed through with ease. Each segment was then passed over a Pasteur pipette and the longitudinal muscle layer and adhering myenteric plexus was teased away using moist cotton wool, by stroking tangentially away from the mesenteric attachment. […] All measurements were recorded isometrically (Grass FTO3 transducer). […] The experimental E/[A] curve data was expressed as the percentage inhibition of the peak height of electrically-stimulated contraction. Antagonist affinity values were calculated from the degree of rightward shift of the R-(α)-methylhistamine E/[A] curves using Schild's methods (Arunlatcshama & Schild, 1949). […]

Another test has as its target T2, Histamine H3 (Cavia porcellus, UniProt Q9JI35).
T2 construct: ileum longitudinal muscle myenteric plexus membranes; from tissue; host or cells: ileum longitudinal muscle myenteric plexus membranes of male Dunkin Hartley guinea pigs
As to the kind of experiment: Histamine H3 radioligand binding assay, [3H]-R-α-methylhistamine, guinea pig ileum longitudinal muscle myenteric plexus membranes. The note with it: 3 nM [3H]-R-α-methylhistamine, 165 min, 21±3° C., Cheng Prusoff; variance ±0.12 log units. On the procedure: Histamine H3 Radioligand Binding Assay
Male Dunkin Hartley guinea pigs (200-300 g) were used. The small intestine was rapidly removed (cut ~5 cm from caecum and 5 cm from stomach) and placed in ice-cold 20 mM Hepes-NaOH buffer (pH7.4 at 21±3° C.). The tissue was cut into ~10 cm segments, flushed through with ice-cold 20 mM Hepes-NaOH buffer and placed in a beaker containing fresh buffer at 4° C. 10 cm segments of ileum were threaded onto a glass pipette and the longitudinal muscle myenteric plexus was peeled away from the circular muscle using damp cotton-wool. Longitudinal muscle myenteric plexus was immediately placed in ice-cold Viaspan® solution (~100 ml for tissue from 3 guinea pigs) and placed in the refrigerator for 24 hours. […]
Guinea pig ileum longitudinal muscle myenteric plexus membranes (400 μl) were incubated for 165 min at 21±3° C. in a final volume of 500 μl with 20 mM Hepes-NaOH buffer containing [^3 H]-R-α-methylhistamine (50 μl; 3 nM) and competing compound. […] The filters were washed (3×3 ml) with ice-cold 50 mM Tris-HCl (pH6.9 at 21±3° C.), transferred into scintillation vials, 5 ml liquid scintillation cocktail was added and after 4 hours the bound radioactivity was determined by counting (4 min) in a Beckman liquid scintillation counter.
Data are analysed using GraphPad prism and the general equation for a competition curve with variable Hill slope (nH). […]

For the compound `O=S(=O)(Cc1ccccc1)NCCc1c[nH]cn1` [Example 21, N-[2-(4(5)-Imidazoyl)ethyl]-phenylmethanesulfonamide], at H3 receptor, the Kb was more than 10 µM. Besides, the “pK1 (binding assay)” value at Histamine H3 amounted to 5.54.

Source of the values: patent US6080871A, “Sulfonamides and sulfamides as H3 receptor antagonists” (James Black Foundation Limited, priority 1996, dated 2000).
